# Earlier results as cited in patent publication US5502037A, “Pro-cytotoxic drug conjugates for anticancer therapy” (priority 1993, dated 1996).
# Tested on: Yoshida ascites sarcoma
# Details: Brock, 1976, cited from earlier work
compound,measurement,setting,value
NP(=O)(OCCC(=O)O)N(CCCl)CCCl (centres unmarked),In vivo activities: LD50,"lethal dose, rat",~ 800 mg/kg
same,D50 Index (LD50/CD50),"therapeutic index, Yoshida ascites sarcoma in rat",4
